# “Also recorded” adds a separate entry of the source.
# Tests used:
# Assay type in all cases: cell-based
# PML = assay: β-INF induction of PML expression and PML bodies in COS-7 cells (immunofluorescence, RT-PCR, Western blot); conditions: 2000 UI/ml
# Method: RNA preparation and semi-quantitative RT-PCR: RNA was extracted from whole cell lysates of transfected or untransfected COS-7 cells, using the RNAeasy kit (Quiagen), and cDNAs were synthesized (ThermoScript RT-PCR System, Invitrogen) according to the manufacturers' instructions. PCR was performed using primers specific for the genes of interest. Primers used for specific detection of PML IV were located in exon 8, and the reverse primer was designed to anneal only PML IV mRNAs. The cyclophilin A gene was used as the reference.
# (§1) Cell culture, transfections, MG132, INF and cadmium treatments: COS-7 cells were maintained in DMEM (Invitrogen) supplemented with 5% FBS, and penicillin-streptomycin (100 UI/ml; 100 μg/ml). Cell lines were transfected with Lipofectamine-PLUS reagents (Invitrogen) as prescribed. Unless otherwise specified, cells were harvested or analyzed by immunofluorescence 40-45 h post-transfection. β-INF. Recombinant human Interferon beta (Hu-IFN-b) is obtained from human fibroblast mRNA expressed in E. Coli. Its molecular weight is approximately 20 kDa. Recombinant human Interferon beta was supplied as a solution at 1×10^6 units/ml in PBS (phosphate buffered saline) containing 0.1% BSA (bovine serum albumin) and 10% glycerol. It was purchased from Sigma-Aldrich. Recombinant human Interferon beta (2000 UI/ml) was added to the culture medium after plating and during transfection. Cadmium chloride (Cadmium chloride hemi pentahydrate, Sigma Aldrich) (from 0.25 μM to 2 μM) was added during transfection. For proteasome inhibition, 5 μM MG132 was applied for 12 h, 25 h post-transfection. Cultures of post-mitotic neurons were prepared from the cortex of embryonic day 16 Wistar rats. Cells were extracted from the embryos and cultured with 1 μM MK801. Glial cell proliferation was stopped by adding 1 μM cytosine arabinoside after 3 h. Primary cultures of cortical neurons were transfected 96 h after plating using Lipofectamine 2000 reagent (Invitrogen) according to the manufacturer's instructions.
# (§2) Western blot and filter retardation assay: Cells were harvested in PBS, pelleted and lysed 30 min on ice in lysis buffer containing 50 mM Tris pH 8.8, 100 mM NaCl, 5 mM MgCl2, 0.5% NP40, 1 mM EDTA and 250 UI/ml benzonase (Merck) supplemented with a cocktail of protease inhibitors (Complete and Pefabloc, Roche). Total extracts were centrifuged at 13000 rpm for 10 min at 4° C. to separate soluble proteins from aggregates and membranes. Supernatants (30 μg protein) were analyzed by Western blot. Pellets were washed with PBS and further incubated 30 min on ice in a pellet buffer containing 20 mM Tris pH 8.0, 15 mM MgCl2 and 250 UI/ml benzonase. Protein concentrations (supernatant and pellet) were determined by Bio-Rad assay. […]
# ATXN7 = assay: Western blot of ATXN7 levels in β-INF-treated COS-7 cells; conditions: 2000 UI/ml
# Method: as §1
# as §2, with “Pellets were washed with PBS and further incubated 30 min on ice in a pellet buffer containing 20 mM Tris pH 8.0, 15 mM MgCl2 and 250 UI/ml benzonase.” left out
# mutant ATXN7 aggregates = assay: Filter retardation assay of SDS-insoluble material in COS-7 cells; conditions: β-INF-treated COS-7 cells
# Method: Cell culture, transfections, MG132, INF and cadmium treatments: COS-7 cells were maintained in DMEM (Invitrogen) supplemented with 5% FBS, and penicillin-streptomycin (100 UI/ml; 100 μg/ml). Cell lines were transfected with Lipofectamine-PLUS reagents (Invitrogen) as prescribed. […] Recombinant human Interferon beta (Hu-IFN-b) is obtained from human fibroblast mRNA expressed in E. Coli. Its molecular weight is approximately 20 kDa. Recombinant human Interferon beta was supplied as a solution at 1×10^6 units/ml in PBS (phosphate buffered saline) containing 0.1% BSA (bovine serum albumin) and 10% glycerol. It was purchased from Sigma-Aldrich. Recombinant human Interferon beta (2000 UI/ml) was added to the culture medium after plating and during transfection. Cadmium chloride (Cadmium chloride hemi pentahydrate, Sigma Aldrich) (from 0.25 μM to 2 μM) was added during transfection. […]
# Western blot and filter retardation assay: Cells were harvested in PBS, pelleted and lysed 30 min on ice in lysis buffer containing 50 mM Tris pH 8.8, 100 mM NaCl, 5 mM MgCl2, 0.5% NP40, 1 mM EDTA and 250 UI/ml benzonase (Merck) supplemented with a cocktail of protease inhibitors (Complete and Pefabloc, Roche). […] Supernatants (30 μg protein) were analyzed by Western blot. […] Protein concentrations (supernatant and pellet) were determined by Bio-Rad assay. […]
substance,measurement,setting,value
"β-INF: Recombinant human Interferon beta obtained from human fibroblast mRNA expressed in E. Coli, approximately 20 kDa, purchased from Sigma-Aldrich",PML bodies in cells expressing mutant ATXN7,"PML; COS-7 cells, immunofluorescence",formation of large strongly immunoreactive PML bodies that colocalized with mutant ATXN7
same,levels of PML isoforms,"PML; Western blot, COS-7 cells expressing endogenous ATXN7, FL-10Q or FL-74Q",increased the levels of several PML isoforms; also recorded: induces the expression of multiple isoforms of PML
same,size and number of PML bodies,"PML; non-transfected COS-7 cells, immunofluorescence",increased the size and number of PML bodies
same,expression of endogenous PML IV mRNA,"PML; semi-quantitative RT-PCR with PML IV specific primers, COS-7 cells",induced; also recorded: increases
same,amount of overexpressed soluble mutant ATXN7 FL-74Q,ATXN7,decreases
same,amount of overexpressed soluble wild-type ATXN7 FL-10Q,ATXN7,decreases
same,level of endogenous wild type ATXN7,ATXN7,no effect; also recorded: does not affect
same,insoluble PML-containing material,mutant ATXN7 aggregates,detected; also recorded: appears
same,insoluble mutant ATXN7 (aggregates),mutant ATXN7 aggregates; 2000 UI/ml,disappear
